These are literature values, as cited in patent publication US20250235429A1, “TREATMENT OF DISEASES VIA ADMINISTRATION OF BUNTANETAP AND AN ANTIDIABETIC AGENT” (ANNOVIS BIO, INC., priority 2024, published 2025).

For the data set the following is noted: in vivo; cited from earlier work.

As for NPH insulin, the duration is 14 to 24 h and the “peak concentration occurs after administration” value is 4 to 12 h.
Take Regular insulin: the duration is 5 to 8 h, the onset is 30 to 60 min and the “peak concentration occurs after administration” value was 2 to 4 h.
